## Yeast mating assay B: variants of the scFv Ab-14

Reference: Li et al. 2023, doi:10.1038/s41467-023-39022-2. File: FLAb, binding data.

Target peptide (SARS-CoV-2 spike, HR2 region): PDVDLGDISGINAS

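The parent was found by panning a naive human phage display library on the peptide. This is the validation round: designs drawn from the data on random variants, tested in the same kind of assay. Several design methods are mixed in this list. AlphaSeq pools MATa yeast showing the antibodies with MATalpha yeast showing the peptide. Mating (16 h, 30 °C) was followed by selection of diploids and sequencing of their barcodes. The ratio of observed to expected reads was calibrated, replicate by replicate, on BCL2-family standards whose Kd was known from biolayer interferometry. Each pool was mated in six replicate cultures.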

Each scFv is VH, three GGGGS repeats, VL, as in the parent Ab-14, and differs from it in the CDRs of the heavy chain only.
VH: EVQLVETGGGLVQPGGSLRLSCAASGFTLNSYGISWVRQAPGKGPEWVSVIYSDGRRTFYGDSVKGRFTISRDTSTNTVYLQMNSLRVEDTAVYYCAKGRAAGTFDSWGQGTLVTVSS
VL: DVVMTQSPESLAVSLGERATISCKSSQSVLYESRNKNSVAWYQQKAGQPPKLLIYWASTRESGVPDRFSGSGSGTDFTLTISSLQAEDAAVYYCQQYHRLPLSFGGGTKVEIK

Each variant is given by its three heavy chain CDRs, as the data file delimits them; those of the parent are GFTLNSYGIS, VIYSDGRRTFYGDSVK, GRAAGTFDS. Variants here have at most six changes. Values are log10 of the apparent Kd in nM; lower means stronger binding. "nd" means that the variant was in the library but no mating with the target was seen in that replicate; the authors take this as a sign of poor binding, and no number exists. In the paper, a design with two or fewer of six values counts as a poor binder. A sequence measured in both rounds can read differently, since the two assays cover different ranges. Three control strains display no target. For all heavy chain designs, 1% of the pairings with them gave a signal, with a median of 2.08 and one signal in twenty below 0.84, so weak values seen in few replicates may be background.

Variant GFSLKSYGIS / VIYSDGRRTFYGDSVK / GQAAGTFDS gave nd, nd, nd, nd, 1.05, nd. Variant GFTLNEYGIS / VIYSDGRRTFYSDSVK / GRAGGTFWS showed nd, nd, nd, nd, nd, nd. With GFTLNSYGIS / VIYSDGRRTFYADEVK / GEQAGTFDS the result was 0.68, 0.69, 0.68, -0.24, 1.01, 0.99. With GFTLDSYGIS / VIYSDGRRTFYDNSVK / GRAAGTFDS the result was 1.24, 1.07, 2.12, 0.99, 1.74, 1.71. For GFTLNSYGSS / VIYRDGRRTFYGDSVK / GRAAGTFDS, the assay gave nd, nd, nd, nd, nd, nd. With GFNLNSYGIS / VIYSDGRRTFYVDSVK / GQAAGTFDS the result was nd, nd, nd, nd, nd, nd.

Variant GFTLNDYGIS / VIYSDGRRTSYGDSVK / GGAAGTFDS showed 0.46, 0.28, 0.39, 0.07, 0.30, 0.46. Variant GFSLNDYGIS / VIYSDGRRTFYGDSVK / GRYAGTFDT showed 0.55, 0.38, -0.23, -0.78, 0.26, 0.40. For GFTLNSYGIS / VIYSDGRRTHYGDSVK / GRAAGTFDS, the assay gave nd, nd, nd, nd, nd, nd. Variant GFNLNSYGIS / VIYSDGRRTFYDDSVK / GRLAGTFDS showed nd, nd, 1.07, nd, 0.36, nd. Variant GFTLNSYGIS / VIYADGRRTFYGDSVK / GTAAGTFDM showed -0.11, 0.29, -0.33, -0.76, -0.65, -0.42. Variant GFDLNSYGIS / VIYSDGRRTFYADSVK / GKEAGTFDS showed -0.24, 0.17, -0.36, 0.16, -0.33, -0.36.

For GFTLNSYGIS / VIYADGYRTFYGDSVK / GRAAGTFSS, the assay gave nd, nd, nd, nd, nd, nd. Variant YFNLNSYGIS / VIYSDGRRTFYIDSVK / GEAAGTFDS gave nd, nd, nd, nd, 3.33, nd. Variant GNTLNSYGIS / VIYSDGRRTFYGDSVK / GRAAGLFDG showed nd, nd, nd, nd, nd, nd. For GFNLNSYGIS / VIYSDGRRTIYGDSVK / GRNAGTFDS, the assay gave nd, nd, nd, nd, 1.19, nd. Variant GFGLESYGIS / VIYSDGRRTFYGDSVK / GTAAHTFDS showed nd, nd, nd, nd, nd, nd. Variant GFTLNEYGIS / VIYSDGRRTFYGDQVK / GRAAGRFVS gave 2.05, 1.63, 0.76, 1.20, 1.11, 0.81.

Variant GFTLNSYGIS / VIYSDGRRTFYSDAVK / GWAAGLFIS showed nd, nd, nd, nd, nd, nd. With GFSLNSYGIS / VIYSDGRRTFYADDVK / GQTAGTFDS the result was 0.27, -0.44, -0.50, 0.28, -0.83, -0.17. Variant GFSLNEYGIS / VIYSDGKRTFYIDSVK / GRAAGTFDS gave 1.18, 0.69, 1.04, 0.46, 0.73, 1.01. For GFDLNSYGIS / VIYSDGRRTFYVDEVK / GRTAGTFDS, the assay gave -0.32, 0.00, 1.19, 0.36, -0.39, -0.03. Variant GFWLNDYGIS / VIYSDGRRTFYKDSVK / GRTAGTFDT gave nd, nd, nd, nd, nd, nd. Variant GFQLNDYGIS / VIYSDGRRTFYGDSVK / GRMAGTFDS showed 0.44, 2.40, -0.11, nd, 0.20, 0.01.

Variant GFDLNSYGIS / VIYSDGRRTFYVDDVK / GKAAGTFDS gave 0.22, 0.25, 0.58, 0.38, 0.42, -0.13. With GFDLNSYGIS / VIYSDGRRTFYGDSVK / GQAAGTFDE the result was 0.50, 0.29, 0.90, 0.60, 0.79, 1.05. Variant GFTLNEYGIS / VIYSDGRRTFYQDSVK / GRAAVTFDM showed -0.21, -0.66, -0.75, 0.05, -0.34, -0.44. For GFTLNSYGIS / VIYSDGKRTFYGDSVK / CRAAGTFDS, the assay gave 1.00, 0.37, 1.14, 0.42, 0.58, 1.53. Variant GFTLNSYGIS / VIYSDGRRTFYGDFVK / GRAAGTWDS gave nd, nd, nd, nd, nd, nd. With GFELNSYGIS / VIYSDGRRTFYADAVK / GKTAGTFDS the result was 0.42, 0.08, 0.03, 0.04, -0.12, 0.30.

Variant GFTLTSYGIS / VIYSDGQRTFFGDSVK / GKAAGAFDY gave nd, nd, nd, nd, nd, nd. For GFQLNSYGIS / VIYSDGRRTFYVDSVK / GRQAGTFDS, the assay gave nd, nd, nd, nd, nd, nd. Variant GFTLNKYGIS / VIYSDGRRTFYGDSVK / GLAIGTFDS gave nd, nd, nd, nd, nd, nd. With GFDLNEYTIS / VIYSDGKRTFYGDSVK / GRAAGTFDS the result was nd, nd, nd, nd, nd, nd. For GFTLNEYGIS / VIYSDGRRTFYTDSVK / GRFAGTFDG, the assay gave nd, nd, 0.11, 0.24, 0.97, nd. Variant GFSLNLYGIS / VIYSDGRRTFYGDSVK / GRTAGTFDS showed 0.28, nd, 1.51, 3.44, 1.88, 1.02.

Variant SFTLNSYGIS / VIYADGKRTFYGDSVK / GRAAGTFKS showed nd, nd, nd, nd, nd, nd. Variant KFSLNSYGIS / VIYSDGRRTFYGDSVK / GRQAGTFDS showed nd, nd, nd, nd, nd, nd. For GFDLNSYGSS / VIYSDGRRTFYGDSVK / GGQAGPFDL, the assay gave nd, nd, nd, nd, nd, nd. For GFTLNDYGIS / VIYSDGRRTQYTDSVK / GRAAGTFDT, the assay gave 1.09, 2.18, 1.33, 1.02, 1.77, 1.56. Variant GFTLNQYGIS / VIYSDGRRTFYGDSVK / VRAAGTFDS showed nd, 1.87, nd, nd, nd, nd. Variant GFNLNSYGIS / VIYSDGRRTFYADMVK / GQAAGTFDD showed nd, nd, nd, nd, nd, nd.

Variant GFELNSYGIS / VIYSDGKRTFYSDSVK / GKAAGTFDS showed -0.15, 0.06, -0.05, -0.21, -0.10, 0.28. For GFNLNQYGIS / VIYRDGRRTFYGDSVK / GRAGGYFDS, the assay gave nd, nd, nd, nd, nd, nd. For GFLLNSYGIS / VIYSDGRRTFYADSVK / GQTAGTFDS, the assay gave 1.26, 0.49, 0.30, 1.26, 0.87, 1.13. With GFKLNSYGIS / VIYSDGRRTFYGDSVK / GQTAGTFDL the result was nd, 1.84, nd, 1.37, 1.28, 0.48. Variant GLTLNSYGIS / VIYSDGRRTFYGDSVR / GRAAGAFDS showed nd, nd, nd, nd, nd, nd. For GFTLNSYGIS / VIYSDGRRTFYEDAVK / GRAAGTFDS, the assay gave nd, nd, nd, nd, nd, nd.

Variant GFSLNEYGIS / VIYSDGRRTFYCDSVK / GRAAGTFDR showed nd, nd, 0.50, nd, nd, nd. For GFSLNSYGIS / VIYSDGRRTFYSDDVK / GEAAGTFDS, the assay gave 0.38, -0.04, 0.35, 0.16, -0.03, -0.07.

Excerpt, the first 8 entries:

For GFSLKSYGIS / VIYSDGRRTFYGDSVK / GQAAGTFDS, the assay gave nd, nd, nd, nd, 1.05, nd.
For GFTLNEYGIS / VIYSDGRRTFYSDSVK / GRAGGTFWS, the assay gave nd, nd, nd, nd, nd, nd.
For GFTLNSYGIS / VIYSDGRRTFYADEVK / GEQAGTFDS, the assay gave 0.68, 0.69, 0.68, -0.24, 1.01, 0.99.
For GFTLDSYGIS / VIYSDGRRTFYDNSVK / GRAAGTFDS, the assay gave 1.24, 1.07, 2.12, 0.99, 1.74, 1.71.
For GFTLNSYGSS / VIYRDGRRTFYGDSVK / GRAAGTFDS, the assay gave nd, nd, nd, nd, nd, nd.
For GFNLNSYGIS / VIYSDGRRTFYVDSVK / GQAAGTFDS, the assay gave nd, nd, nd, nd, nd, nd.
For GFTLNDYGIS / VIYSDGRRTSYGDSVK / GGAAGTFDS, the assay gave 0.46, 0.28, 0.39, 0.07, 0.30, 0.46.
For GFSLNDYGIS / VIYSDGRRTFYGDSVK / GRYAGTFDT, the assay gave 0.55, 0.38, -0.23, -0.78, 0.26, 0.40.